# Yeast mating assay B: variants of the scFv Ab-14

The measurements come from Li et al. 2023 (doi:10.1038/s41467-023-39022-2) through the FLAb antibody collection.

All variants were tested on one target, the spike HR2 peptide PDVDLGDISGINAS (SARS-CoV-2).

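The starting antibody came from a phage panning campaign against this peptide. The variants were designed computationally from a first round of random CDR variants and then made and measured. Several design methods are mixed in this list. The assay is AlphaSeq: two haploid yeast populations carry antibody and antigen on their surface. Pairs that bind mate more often; barcode pairs of the diploids are counted by sequencing. The ratio of observed to expected reads was calibrated, replicate by replicate, on BCL2-family standards whose Kd was known from biolayer interferometry. Mating was done six times.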

Each scFv is VH, a 15-residue (Gly4Ser)3 linker, VL, as in the parent Ab-14, and differs from it in the CDRs of the light chain only.
VH: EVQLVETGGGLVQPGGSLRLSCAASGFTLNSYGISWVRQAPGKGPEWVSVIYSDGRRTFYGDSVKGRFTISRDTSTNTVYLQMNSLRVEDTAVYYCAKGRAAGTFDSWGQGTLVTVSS
VL: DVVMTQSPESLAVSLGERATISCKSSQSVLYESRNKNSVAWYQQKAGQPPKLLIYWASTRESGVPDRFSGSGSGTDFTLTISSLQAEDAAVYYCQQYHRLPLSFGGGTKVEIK

Variants are written as CDR1, CDR2 and CDR3 of the light chain (limits as in the source). Parent: KSSQSVLYESRNKNSVA, WASTRES, QQYHRLPLS. This list holds designs with more than six substitutions. The Kd shown is the geometric mean over detected replicates; a lower Kd is a better binder. Entries are sorted by rising average. Background: pairings of all light chain designs with three empty control strains gave a value in 4% of cases (median 430 nM, 5th percentile 38 nM). Values in that range, when seen in few replicates, are hard to tell from nonspecific mating.

With KLQQSMLYESRNHNNVA / AASDRES / QQYHRLPLS the result was 510 pM (6 of 6 replicates). Variant HISDLIMVASRNKNSVA / DENTRPD / QQYHRLPLS gave 660 pM (6 of 6 replicates). Variant QIYQAMHTLSQVKNNVA / DVNERGS / QQYFRLPLS gave 710 pM (6 of 6 replicates). With KVQQSELGLSRNKNSVA / EASTRED / QQYHRLPLS the result was 960 pM (6 of 6 replicates). Variant KFEQQWLYSSRNVNSVA / NASTRSQ / QQYHRLPLS showed 1.1 nM (6 of 6 replicates). With KYQQSEGYESRNQNSVA / AASQREE / QQYHRLPLS the result was 1.1 nM (6 of 6 replicates). For KLTNVTGTEKVIGNNVA / EMETRER / QQYNRLPLA, the assay gave 1.1 nM (6 of 6 replicates).

Variant KLSMITGHMSMAKDNVA / EMVTREK / QQYNRLPLS showed 1.1 nM (6 of 6 replicates). Variant KLSTSVLYEDRNCNAVA / AASTREE / QQYHRLPLS gave 1.2 nM (6 of 6 replicates). Variant KQSQQDEYQSRNKNQVA / NASTRYS / QQYHRLPLS showed 1.3 nM (6 of 6 replicates). With KLLQTVQYGSRALNSVA / QMETRED / QQYHRLPLS the result was 1.6 nM (6 of 6 replicates). Variant KLSMVTNSEHKVKNSIA / EMVTREK / QQYDRLPLM showed 1.8 nM (6 of 6 replicates). Variant KVSYSVEYQERNKNSVA / EASQRES / QQYHRLPLS showed 1.9 nM (6 of 6 replicates). With NLGFEDANDNRGMMNVA / DVNTVGE / QQYNRLPLA the result was 2.7 nM (6 of 6 replicates).

Variant TISTSMRYESTLKNAIA / NAQTRES / QQYHRLPIS showed 2.8 nM (6 of 6 replicates). Variant KLYCGVDYGDRNKNQVA / HASQRES / QQYHRLPLS gave 3.4 nM (6 of 6 replicates). Variant KLSMLTEMEHVNRNSVA / ELVTRMR / QQYNRLPLS showed 3.6 nM (6 of 6 replicates). Variant KLSMSGLYESRNWNSVA / EASLRES / QDYHRLPLS showed 4.3 nM (6 of 6 replicates). Variant TISQVMNTLTRHGNNVA / DLQNREN / QQYFRLPLS gave 4.8 nM (6 of 6 replicates). Variant TLMEVGGYELNSHNSIA / DLRTREN / QQYHRLPLS showed 4.9 nM (6 of 6 replicates). For KLDMNELHQSQNTNCVA / DSAQKCV / QQYSRLPLS, the assay gave 5.1 nM (6 of 6 replicates).

Variant HMSALTLGGMRARNSVA / QMTTREN / QQYDRLPLA showed 5.6 nM (6 of 6 replicates). Variant MVNGIMDHLSKQTNNVA / EQTTREE / QQYDRLPLS gave 5.6 nM (6 of 6 replicates). For KIQQEHVGNNKKMEAIA / QGDQRCH / QSYDRLPLS, the assay gave 5.7 nM (6 of 6 replicates). With KISQLVNFLGKNKNSVA / QMSTREV / QQYDRLPLS the result was 6.0 nM (6 of 6 replicates). For MVTQMAMTGMKNKRSVA / NAETRET / QQYHRLPLI, the assay gave 8.1 nM (6 of 6 replicates). For KLSSHEQHGTAQNSAMA / NATVSTQ / QQYSHLPLS, the assay gave 8.7 nM (6 of 6 replicates). Variant TISQMTSLFSQSINNVA / EVSTREQ / QQYDRLPLM gave 9.1 nM (6 of 6 replicates).

Variant HIDILNRGEDLKQDPIA / QADHREQ / QQYFHLPLA showed 9.9 nM (6 of 6 replicates). Variant KLSQSNDYEDRNANNVA / NASQRES / QEYHRLPLS showed 9.9 nM (6 of 6 replicates). Variant MLGMTVMQGMYSRNNVA / QEETRAD / QQYHHLPLS showed 11 nM (6 of 6 replicates). Variant TISQMFLGESRNRNSVA / QASTRES / QSYDRLPLS showed 11 nM (6 of 6 replicates). For KLSQSVMYGQRNKNSVA / KASTRMS / QQYHRLPLY, the assay gave 12 nM (6 of 6 replicates). With MMSQVTGQGTRHRNNVA / QTSTREP / QQYDRLPLV the result was 14 nM (6 of 6 replicates). With KISMLYNFASTNKNSIA / EMTTRES / QHYHRLPLS the result was 15 nM (6 of 6 replicates).

For TLMQVGGYEMNAHNSIA / DLRTRES / QQYHRLPLS, the assay gave 20 nM (6 of 6 replicates). Variant TISQSSNMTSHGRNSVA / QAEMRES / QQYDRLPLS gave 27 nM (6 of 6 replicates). Variant QIGMLLNFELQKINNVA / QMETRVN / QQYDRLPLS gave 29 nM (5 of 6 replicates). Variant MLWQQMYGFNLHKDAIA / NAKERTG / QQYGRLPLS gave 110 nM (4 of 6 replicates). Variant KSSNSTLYESGMKNSVA / NASKRMS / QQYHRLPLS showed 160 nM (6 of 6 replicates). With KISQMQRVGSTHHNSIA / EEATRAK / QQYHRLPLF the result was 300 nM (6 of 6 replicates).

Picked from the list: the 7 lowest averages where every replicate gave a value.

With KLQQSMLYESRNHNNVA / AASDRES / QQYHRLPLS the result was 510 pM (6 of 6 replicates).
With HISDLIMVASRNKNSVA / DENTRPD / QQYHRLPLS the result was 660 pM (6 of 6 replicates).
With QIYQAMHTLSQVKNNVA / DVNERGS / QQYFRLPLS the result was 710 pM (6 of 6 replicates).
With KVQQSELGLSRNKNSVA / EASTRED / QQYHRLPLS the result was 960 pM (6 of 6 replicates).
With KFEQQWLYSSRNVNSVA / NASTRSQ / QQYHRLPLS the result was 1.1 nM (6 of 6 replicates).
With KYQQSEGYESRNQNSVA / AASQREE / QQYHRLPLS the result was 1.1 nM (6 of 6 replicates).
With KLTNVTGTEKVIGNNVA / EMETRER / QQYNRLPLA the result was 1.1 nM (6 of 6 replicates).

The authors averaged sequences with at least three values out of six and counted those with two or fewer as poor binders. The parent sequence was in this pool as ten entries: three were never detected, three once, and four in most replicates, with averages from 2.2 nM to 240 nM. Values of this round are not directly comparable with the first-round values of the same sequences.